Test results from ChEMBL document CHEMBL4602604, “A Selective and Brain Penetrant p38αMAPK Inhibitor Candidate for Neurologic and Neuropsychiatric Disorders That Attenuates Neuroinflammation and Cognitive Dysfunction” (J Med Chem, 2019).

How the values were obtained:
[1] = in vivo; conditions: APP/PS1 knock-in, mouse, po
[2] = physchem

Row | SMILES | NOAEL [1] [mg/kg] | pKa [2]
1 | CN1CCN(c2cc(-c3ccncc3)c(-c3ccc4ccccc4c3)nn2)CC1 [MW-150] | ≥ 250 | 
2 | c1ccc(-c2nnc(N3CCN(c4ncccn4)CC3)cc2-c2ccncc2)cc1 |  | 4.18 to 4.6
3 | Clc1cc(-c2ccncc2)c(-c2ccccc2)nn1 |  | 3.83
